Test results as given in US20040248990A1, “Ketone peroxide compositions” (priority 2002, published 2004).

Test: Solubility of Type 4 ketone peroxides in different solvents (Table I)
Settings: at 20° C.

## CC(C)CCC(C)(OO)OO
Apolar isododecane
  Solubility in isodecane: >45 g/100 g
Polar dimethylphthalate
  Solubility in dimethyl-phthalate: >30 g/100 g
